ChEMBL document CHEMBL1124928, “Inhibition of monoamine oxidases A and B by simple isoquinoline alkaloids: racemic and optically active 1,2,3,4-tetrahydro-, 3,4-dihydro-, and fully aromatic isoquinolines” (J Med Chem, 1990)

Sequences of proteins named here, by UniProt entry; tags and fusion partners are left off.
UniProt P21397, whole entry: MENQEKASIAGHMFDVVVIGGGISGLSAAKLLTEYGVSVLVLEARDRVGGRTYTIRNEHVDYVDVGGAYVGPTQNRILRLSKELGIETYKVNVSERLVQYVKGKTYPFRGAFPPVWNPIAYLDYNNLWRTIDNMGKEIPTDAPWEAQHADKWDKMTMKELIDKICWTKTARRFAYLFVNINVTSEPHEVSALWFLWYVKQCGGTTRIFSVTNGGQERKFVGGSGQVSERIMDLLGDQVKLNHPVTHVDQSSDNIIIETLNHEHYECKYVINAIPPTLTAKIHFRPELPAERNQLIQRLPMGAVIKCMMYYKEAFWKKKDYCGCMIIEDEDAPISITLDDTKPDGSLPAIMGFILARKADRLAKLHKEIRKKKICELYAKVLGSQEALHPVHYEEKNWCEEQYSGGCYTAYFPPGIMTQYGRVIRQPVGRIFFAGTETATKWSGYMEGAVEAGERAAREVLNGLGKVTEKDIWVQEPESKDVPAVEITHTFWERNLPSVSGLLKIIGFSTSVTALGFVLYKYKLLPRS
UniProt P27338, whole entry: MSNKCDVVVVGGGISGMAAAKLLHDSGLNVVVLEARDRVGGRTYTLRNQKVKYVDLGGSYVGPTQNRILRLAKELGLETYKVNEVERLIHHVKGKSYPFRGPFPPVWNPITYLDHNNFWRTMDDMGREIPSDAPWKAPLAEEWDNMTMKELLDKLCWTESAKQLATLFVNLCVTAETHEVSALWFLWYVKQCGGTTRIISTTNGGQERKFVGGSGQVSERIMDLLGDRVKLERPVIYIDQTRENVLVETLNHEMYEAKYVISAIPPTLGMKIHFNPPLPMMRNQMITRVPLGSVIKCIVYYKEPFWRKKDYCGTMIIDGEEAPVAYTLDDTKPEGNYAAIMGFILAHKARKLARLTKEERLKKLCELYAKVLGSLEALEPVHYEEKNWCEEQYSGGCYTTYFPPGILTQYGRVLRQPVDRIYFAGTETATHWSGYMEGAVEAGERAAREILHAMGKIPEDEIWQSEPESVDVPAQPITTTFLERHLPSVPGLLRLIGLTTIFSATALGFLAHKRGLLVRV

Columns and labels:
[1] = target: Amine oxidase [flavin-containing] A (Homo sapiens, UniProt P21397);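 note: enzyme source: monoamine oxidase A taken from human placenta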
[2] = target: Amine oxidase [flavin-containing] B (Homo sapiens, UniProt P27338); assay: Compounds were tested for inhibition against human liver Monoamine oxidase B (competitive inhibition was observed)

c1ccc2c(c1)CCNC2 [1,2,3,4-TETRAHYDROISOQUINOLINE]
Ki [1]: 210 µM | Ki [2]: 15 µM
